# ChEMBL document CHEMBL5126602, “Polo-like Kinase 1 Inhibitors in Human Cancer Therapy: Development and Therapeutic Potential” (J Med Chem, 2022)
# Sequences of proteins named here, by UniProt entry; tags and fusion partners are left off. A change or cut given only in a name is not applied to a line headed by its entry.
# UniProt Q9NYY3: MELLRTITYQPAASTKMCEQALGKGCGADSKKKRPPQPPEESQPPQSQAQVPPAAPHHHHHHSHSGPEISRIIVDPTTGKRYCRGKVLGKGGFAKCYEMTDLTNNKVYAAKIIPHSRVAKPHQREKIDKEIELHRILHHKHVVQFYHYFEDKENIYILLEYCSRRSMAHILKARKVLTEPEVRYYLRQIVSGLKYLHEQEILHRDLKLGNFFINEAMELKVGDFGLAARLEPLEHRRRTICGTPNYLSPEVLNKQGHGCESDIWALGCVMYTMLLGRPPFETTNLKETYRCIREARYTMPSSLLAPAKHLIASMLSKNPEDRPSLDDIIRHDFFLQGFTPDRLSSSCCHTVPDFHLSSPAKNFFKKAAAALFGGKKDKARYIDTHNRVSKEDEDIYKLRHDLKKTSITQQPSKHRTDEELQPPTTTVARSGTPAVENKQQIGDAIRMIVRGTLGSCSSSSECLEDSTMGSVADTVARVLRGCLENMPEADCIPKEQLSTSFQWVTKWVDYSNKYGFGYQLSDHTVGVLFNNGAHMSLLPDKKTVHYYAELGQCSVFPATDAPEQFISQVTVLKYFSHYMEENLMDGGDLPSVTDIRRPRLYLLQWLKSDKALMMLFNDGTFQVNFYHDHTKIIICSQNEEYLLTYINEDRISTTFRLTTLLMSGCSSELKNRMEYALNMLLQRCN
# Molecular target: Serine/threonine-protein kinase PLK2 (Homo sapiens, UniProt Q9NYY3)
# Assay: Inhibition of Myc-tagged PLK2 PBD (unknown origin) expressed in HEK293T cells using 5CF-GPMQTSpTPKNG-NH2 as substrate preincubated for 30 mins followed by substrate addition and measured after 30 mins by fluorescence polarization assay
smiles,measurement,value
CC(=O)N1CCC[C@H]1C(=O)N[C@@H](CC(C)C)C(=O)N[C@@H](Cc1cncn1CCCCCCCCc1ccccc1)C(=O)N[C@@H](CO)C(=O)N[C@H](C(N)=O)[C@@H](C)OP(=O)(O)O,IC50,220 nM
